The values below are quoted from earlier work in patent US12312352B2, “Use of a DPP-4 inhibitor in SIRS and/or sepsis” (Boehringer ingelheim International GmbH, priority 2012, dated 2025).

The test system of this data set is septic animals. The note with it: previous studies; cited from earlier work.

Turning to `CC#CCn1c(N2CCC[C@@H](N)C2)nc2c1c(=O)n(Cc1nc(C)c3ccccc3n1)c(=O)n2C` [linagliptin], the “sepsis-induced increases in DPP-4 activity” value is reported as “suppression of sepsis-induced increases in DPP-4 activity”.
